Target: G143X MjHSP16.5 (HSP16.5-G143STOP, the IXI motif deletion construct) (Methanocaldococcus jannaschii) (UniProt Q57733)
Assay: SEC; Superose 6 column, room temperature, 20 mM Tris-HCl pH 7.4 or 10 mM HEPES pH 7.4 and 100 mM NaCl; about 5 mg of purified protein; size from elution volume against mass standards

- stoichiometry N: 2
Substance: G143X MjHSP16.5 (HSP16.5-G143STOP, the IXI motif deletion construct) (from UniProt Q57733 1-142) (domain or fragment)

— paper PMC3638399
